Measured values as given in patent US12435051B2, “Dual modulator of mGluR5 and 5-HT2A receptor, and use thereof” (Vivozon Inc., priority 2020, dated 2025).

Protein sequences, listed by entry. Tags and fused reporters are not part of them. Residues count along the entry.
UniProt P28223, whole entry: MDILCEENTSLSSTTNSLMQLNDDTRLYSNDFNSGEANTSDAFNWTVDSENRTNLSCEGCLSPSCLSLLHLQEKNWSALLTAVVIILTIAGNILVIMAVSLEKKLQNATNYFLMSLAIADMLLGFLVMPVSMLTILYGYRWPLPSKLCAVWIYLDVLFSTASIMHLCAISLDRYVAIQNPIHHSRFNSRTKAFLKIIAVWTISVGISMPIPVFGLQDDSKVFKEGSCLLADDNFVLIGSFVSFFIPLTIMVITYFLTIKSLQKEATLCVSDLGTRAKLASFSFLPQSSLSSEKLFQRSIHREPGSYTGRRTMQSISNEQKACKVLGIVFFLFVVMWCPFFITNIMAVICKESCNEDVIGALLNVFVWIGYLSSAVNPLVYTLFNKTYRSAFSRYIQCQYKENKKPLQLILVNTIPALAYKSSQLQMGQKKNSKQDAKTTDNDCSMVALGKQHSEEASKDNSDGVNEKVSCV
UniProt P41594, 21-1212 limits assumed: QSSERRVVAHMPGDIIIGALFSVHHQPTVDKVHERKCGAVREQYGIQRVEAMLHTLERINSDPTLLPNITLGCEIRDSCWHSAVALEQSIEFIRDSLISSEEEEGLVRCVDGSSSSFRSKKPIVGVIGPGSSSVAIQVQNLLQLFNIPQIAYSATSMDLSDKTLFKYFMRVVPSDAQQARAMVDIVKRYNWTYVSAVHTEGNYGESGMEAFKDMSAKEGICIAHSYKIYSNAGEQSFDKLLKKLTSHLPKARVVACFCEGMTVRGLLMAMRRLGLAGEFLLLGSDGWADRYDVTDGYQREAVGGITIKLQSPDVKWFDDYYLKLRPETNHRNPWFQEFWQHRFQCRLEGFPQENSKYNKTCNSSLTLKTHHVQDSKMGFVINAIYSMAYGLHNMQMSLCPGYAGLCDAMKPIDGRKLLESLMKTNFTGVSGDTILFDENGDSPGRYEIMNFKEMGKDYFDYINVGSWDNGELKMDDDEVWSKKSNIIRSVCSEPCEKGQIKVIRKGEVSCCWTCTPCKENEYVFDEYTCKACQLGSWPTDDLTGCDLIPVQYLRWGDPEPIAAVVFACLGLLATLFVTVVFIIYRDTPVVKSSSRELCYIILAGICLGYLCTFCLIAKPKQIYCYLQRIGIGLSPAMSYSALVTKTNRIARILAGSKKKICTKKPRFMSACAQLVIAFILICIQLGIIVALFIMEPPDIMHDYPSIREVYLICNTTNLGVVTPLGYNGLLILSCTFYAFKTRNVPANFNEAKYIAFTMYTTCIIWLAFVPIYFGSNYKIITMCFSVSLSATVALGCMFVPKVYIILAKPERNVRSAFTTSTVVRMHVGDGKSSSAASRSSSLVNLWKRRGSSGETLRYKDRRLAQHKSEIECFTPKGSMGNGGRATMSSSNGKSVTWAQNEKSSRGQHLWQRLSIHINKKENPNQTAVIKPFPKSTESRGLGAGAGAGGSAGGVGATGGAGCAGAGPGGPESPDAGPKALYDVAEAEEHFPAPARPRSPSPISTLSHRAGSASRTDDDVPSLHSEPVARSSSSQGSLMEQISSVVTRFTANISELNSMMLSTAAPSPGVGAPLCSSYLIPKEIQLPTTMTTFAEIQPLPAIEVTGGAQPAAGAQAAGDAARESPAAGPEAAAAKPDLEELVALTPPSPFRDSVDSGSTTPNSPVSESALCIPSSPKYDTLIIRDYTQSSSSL

Columns and labels:
human 5-HT2AR = human 5-HT2AR (Homo sapiens, UniProt P28223); test: HTRF-based IP1 accumulation assay (5-HT2AR antagonistic effect); conditions: read-out: Human 5-HT2AR (IC50); HEK293 cells overexpressing human 5-HT2AR; serotonin at EC80
Method: The 5-HT2AR antagonistic effect of the test compounds was confirmed by measuring the production amount of IP1 using the HEK293 cell line permanently overexpressing the human 5-HT2AR. The test compounds were dissolved in 100% DMSO to a final concentration of 10 mM. The starting concentration of 10 μM was prepared from the stock solution, followed by serial dilutions to prepare working solutions in a buffer containing lithium chloride (LiCl). The cells and compounds prepared in the test buffer were placed in a 96-well plate and incubated at room temperature for 10 minutes. Serotonin of EC80 concentration was added, followed by incubation at 37° C. for 30 minutes in a light-shielding state. To measure IP1 accumulation in cells, JP1-d2 acceptor and IP1-Cryptate donor-which are HTRF-based substances for fluorescence signals-were added and incubated for 1 hour at room temperature in a light-shielded state. The fluorescent emission signals of acceptor and donor were detected, and HTRF ratio values were substracted by mean value of serotonin control. The percentage of activation was calculated by normalization of the serotonin control (0%) and IP1 control (100%). The IC50 values of the test compounds are represented in Table 1. (+: 1,000-2,000 nM, ++: 500-1,000 nM, +++: 100-500 nM, ++++: less than 100 nM).

mGluR5 = mGluR5 (Homo sapiens, UniProt P41594); test: Fluorescence-based Ca2+ mobilization assay; conditions: read-out: Human mGluR5 (IC50); HEK293 cells overexpressing mGluR5; L-glutamate at EC80
Method: In order to measure the activity on the mGluR5, an experiment was carried out to check the change in the intracellular Ca^2+ level using the HEK293 cell line permanently overexpressing the mGluR5. The cells in the cell culture medium were aliquoted into a 384-well plate coated with poly-D-lysine and cultured in a 37° C. incubator supplied with 5% CO2. The next day, the medium was removed and a dye loading buffer—in which a reagent capable of measuring Ca^2+ was dissolved—was added, and then incubated at 37° C. for 60 minutes. The test compounds were dissolved in 100% DMSO at a final concentration of 10 mM to make a stock solution. The starting concentration of […] was prepared from the stock solution, followed by serial dilutions to prepare working solutions (test compound working solutions). The test compound working solutions were added to the cells that were incubated in the dye loading buffer, which were maintained for 30 minutes at room temperature in a light-shielding state before measurement. The Ca^2+ level change induced by L-glutamate at EC80 concentration was measured for 2 minutes using FLIPR Tetra (MDS Analytical Technologies). […] The efficacy of the test compounds was calculated as IC50 values and represented in Table 1. […]

Row | SMILES | IC50 (human 5-HT2AR) [nM] | IC50 (mGluR5) [nM]
1 | CC1(CNC(=O)c2ccc(C#Cc3ccc(F)cc3F)cc2)CCOCC1 | 100 to 500 | < 100
2 | O=C(NCC1(O)CCOCC1)c1ccc(C#Cc2ccccc2F)cc1 | 500 to 1000 | 100 to 500
